Reference: patent publication US12281057B2 (VERTEX PHARMACEUTICALS INCORPORATED, priority 2017, dated 2025)

Amino acid sequences for entries named in this document (tags omitted). Residues count along the entry.
UniProt Q9Y5Y9, 126-1722 limits assumed: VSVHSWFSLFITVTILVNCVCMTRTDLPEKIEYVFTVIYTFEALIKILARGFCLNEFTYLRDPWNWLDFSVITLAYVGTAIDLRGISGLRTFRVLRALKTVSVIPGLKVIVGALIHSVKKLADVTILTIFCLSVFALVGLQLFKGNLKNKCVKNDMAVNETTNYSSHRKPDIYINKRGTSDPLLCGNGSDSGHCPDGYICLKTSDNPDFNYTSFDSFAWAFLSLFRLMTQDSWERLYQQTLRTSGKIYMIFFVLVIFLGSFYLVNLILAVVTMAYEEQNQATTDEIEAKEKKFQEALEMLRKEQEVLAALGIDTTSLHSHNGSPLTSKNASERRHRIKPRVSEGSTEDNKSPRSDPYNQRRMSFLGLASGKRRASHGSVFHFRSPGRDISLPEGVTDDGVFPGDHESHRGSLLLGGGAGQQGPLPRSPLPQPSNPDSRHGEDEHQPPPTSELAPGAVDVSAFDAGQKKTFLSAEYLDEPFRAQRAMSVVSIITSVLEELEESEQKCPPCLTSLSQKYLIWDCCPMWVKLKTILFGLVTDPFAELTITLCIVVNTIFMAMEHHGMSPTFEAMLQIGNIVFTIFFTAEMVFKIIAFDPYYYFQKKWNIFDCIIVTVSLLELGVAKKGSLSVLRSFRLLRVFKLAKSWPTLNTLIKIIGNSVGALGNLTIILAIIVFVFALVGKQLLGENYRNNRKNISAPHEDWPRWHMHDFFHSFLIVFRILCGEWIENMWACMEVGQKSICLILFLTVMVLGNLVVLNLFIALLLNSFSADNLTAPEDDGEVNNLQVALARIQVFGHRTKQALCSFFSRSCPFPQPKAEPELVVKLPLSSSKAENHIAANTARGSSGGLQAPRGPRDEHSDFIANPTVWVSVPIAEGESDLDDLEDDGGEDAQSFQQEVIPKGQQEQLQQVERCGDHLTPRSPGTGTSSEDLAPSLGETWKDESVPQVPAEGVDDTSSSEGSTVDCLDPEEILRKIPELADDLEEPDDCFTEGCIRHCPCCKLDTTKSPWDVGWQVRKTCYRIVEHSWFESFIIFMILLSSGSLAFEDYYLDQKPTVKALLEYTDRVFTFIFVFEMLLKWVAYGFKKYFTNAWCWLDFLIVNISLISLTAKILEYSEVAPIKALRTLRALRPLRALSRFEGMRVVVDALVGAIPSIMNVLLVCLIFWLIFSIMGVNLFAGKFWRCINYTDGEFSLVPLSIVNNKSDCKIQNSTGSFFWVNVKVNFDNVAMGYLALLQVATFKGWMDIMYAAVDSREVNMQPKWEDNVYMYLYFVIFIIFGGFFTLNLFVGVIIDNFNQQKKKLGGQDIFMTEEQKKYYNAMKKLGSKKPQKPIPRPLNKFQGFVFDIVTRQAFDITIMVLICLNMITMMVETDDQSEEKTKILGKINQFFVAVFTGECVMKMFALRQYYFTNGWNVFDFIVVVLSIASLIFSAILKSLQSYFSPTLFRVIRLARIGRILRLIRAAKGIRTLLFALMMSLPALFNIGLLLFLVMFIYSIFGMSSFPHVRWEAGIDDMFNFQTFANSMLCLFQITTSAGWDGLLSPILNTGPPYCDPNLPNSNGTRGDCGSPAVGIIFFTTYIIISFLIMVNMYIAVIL

Target: truncated form of human NaV 1.8 with full channel activity (Homo sapiens, UniProt Q9Y5Y9)
Assay: E-VIPR Assay Method A for detecting and measuring Nav inhibition (HEK cells, membrane potential FRET dyes, electrical stimulation)
Type: cell-based
Settings: read-out: Nav 1.8 MedChem Optical Assay EVIPR Assay Method A HS IC50, HEK cells expressing human NaV 1.8, HS (human serum) in compound loading buffer, 11 point dose response, top dose 3 μM, Table 20A
From the text: E-VIPR Assay Method A for Detecting and Measuring Nav Inhibition Properties Sodium ion channels are voltage-dependent proteins that can be activated by inducing membrane voltage changes by applying electric fields. The electrical stimulation instrument and methods of use, referred to as E-VIPR, are described in International Publication No. WO 2002/008748 A3 and C.-J. Huang et al. Characterization of voltage-gated sodium channel blockers by electrical stimulation and fluorescence detection of membrane potential, 24 Nature Biotech. 439-46 (2006), both of which are incorporated by reference in their entirety. […] 7) The plate was read on E-VIPR using the current-controlled amplifier to deliver stimulation wave pulses using the following protocol: 1.25 Amps, 2.5 ms pulse width biphasic waveform, 10 Hz for 10 seconds at a scan rate of 200 Hz. […] Data Analysis: Data were analyzed and reported as normalized ratios of emission intensities measured in the 460 nm and 580 nm channels. […] The fluorescence ratio (Rf/Ri) was then calculated and reported as a function of time. […] Responses to the negative (N) and positive (P) controls were calculated as above. […]

With `[2H]C([2H])([2H])Oc1c(Oc2ccc(C(F)(F)F)c(OC)c2C(=O)Nc2cc(C(N)=O)ncc2C)ccc(OC(F)(F)F)c1F` the IC50 was 10 nM.
